# Measured affinities in a library of Ab-91 heavy chain variants

Target: peptide PDVDLGDISGINAS, taken from heptad repeat 2 (HR2) of SARS-CoV-2 spike.

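Library AAYL51 holds single substitutions and randomly drawn double and triple substitutions in the CDRs. AlphaSeq pools MATa yeast showing the antibodies with MATalpha yeast showing the peptide. The frequency of each diploid, read from paired DNA barcodes, reflects how well the two displayed proteins bind. The ratio of observed to expected reads was calibrated, replicate by replicate, on BCL2-family standards whose Kd was known from biolayer interferometry. There are three technical replicates.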

The variants keep the light chain, the linker and the frameworks of Ab-91 (scFv order VL, a (GGGGS)3 linker, VH).
VL: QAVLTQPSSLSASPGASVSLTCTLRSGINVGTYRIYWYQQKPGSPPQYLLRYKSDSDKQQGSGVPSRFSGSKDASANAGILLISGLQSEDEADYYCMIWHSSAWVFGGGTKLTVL
VH: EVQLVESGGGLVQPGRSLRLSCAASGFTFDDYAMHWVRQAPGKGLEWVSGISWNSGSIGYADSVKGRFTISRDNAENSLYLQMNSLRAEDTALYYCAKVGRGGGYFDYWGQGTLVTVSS

The parent's heavy chain CDRs are GFTFDDYAMH, GISWNSGSIGYADSVK, VGRGGGYFDY; each variant's own CDRs replace them letter for letter.
Numbers give log10(Kd / nM), so 0 is 1 nM and 3 is 1 µM. Smaller is tighter.
Where no diploid with the target was found in that replicate, the entry reads "ND": below detection, most likely a poor binder, though not proof of it.
Empty control strains, which show no peptide, gave a signal in 21% of pairings with library AAYL51; the median was 4.54 and 95% of these signals were weaker than 3.26. No background was subtracted. Also given: how often the same scFv was detected with the empty control strains, with their mean in brackets.

| # | CDR-H1 | CDR-H2 | CDR-H3 | replicates, log10 nM | signal with controls |
|---|---|---|---|---|---|
| 1 | GFTFDDYAMH | GISWNHGHIGYACSVK | VGRGGGYFDY | ND / ND / ND | 3/9 (4.43) |
| 2 | DFTFDDYAMH | GISWNMGSIGYADSVH | VGRGGGYFDY | ND / 6.03 / ND | 1/9 (3.45) |
| 3 | GFTFDDYAMH | GISWNSVSIGYADSVL | AGRGGGYFDY | 4.82 / 6.19 / ND | 3/9 (4.41) |
| 4 | GFTNDDYAMH | GISWNGGSIGYADSVK | VGRGGGYFDY | 3.56 / ND / ND | 0/9 |
| 5 | GFTFDDYAMH | GISWISGYIGYADSVK | VPRGGGYFDY | 4.83 / 4.56 / ND | 8/9 (5.40) |
| 6 | GFVFDDYAMH | GISPNSGSIGWADSVK | VGRGGGYFDY | 1.91 / 1.90 / 1.99 | 4/9 (4.64) |
| 7 | GFTFDDYAMH | GISWNSGSIGYADSVK | VERGGGYWDS | 2.40 / 2.27 / 2.19 | 3/9 (4.29) |
| 8 | GFTFDDYAMH | GQSWNSGSIGYADSVF | EGRGGGYFDY | ND / 3.69 / ND | 1/9 (2.71) |
| 9 | GFTFDDYAMH | GDSWNSGSIGYADVVK | VGRGGGQFDY | ND / ND / ND | 0/9 |
| 10 | GFTFDDYAMY | GISWNCGSIGYADSVK | MGRGGGYFDY | ND / ND / ND | 0/9 |
| 11 | GFTFDDYAMH | GISWNSGSIGYADSVK | KGRGGGYRFY | 4.98 / 5.22 / 4.50 | 6/9 (5.03) |
| 12 | GFTFDDYAKN | GIQWNSGSIGYADSVK | VGRGGGYFDY | ND / 5.58 / ND | 1/9 (4.13) |
| 13 | GFTFDDYAMH | GISWNSGSIGWADSVC | PGRGGGYFDY | ND / ND / ND | 0/9 |
| 14 | CFTFDDYAMH | GISWEVGSIGYADSVK | VGRGGGYFDY | 3.71 / ND / ND | 1/9 (4.52) |
| 15 | GFTFDDYAML | GISWNSGSIGYADSVK | VGRGGGSLDY | 4.91 / 3.33 / ND | 3/9 (4.46) |
| 16 | GFTFDDYAMH | GISWNSGRIIYADSVK | VTRGGGYFDY | ND / ND / ND | 0/9 |
| 17 | GRTFDDYAMH | GNSWNSGSIGYADSVK | VGRGGGWFDY | ND / 5.17 / ND | 1/9 (2.17) |
| 18 | GFTFSDYAMH | GISWNSGLIGYADSVK | VGRGGGYFNY | 5.42 / ND / ND | 3/9 (3.96) |
| 19 | GFTFDDYAMH | GASWNSCSIGYRDSVK | VGRGGGYFDY | 4.02 / 4.79 / ND | 1/9 (3.45) |
| 20 | GFTFDDYAMH | GIASNSGSIMYADSVK | VGRGGGYFDY | ND / ND / 3.93 | 2/9 (3.93) |
| 21 | GFTFDDYAMH | GISWNSGSKGYADAVK | VGEGGGYFDY | 1.88 / 1.79 / 1.41 | 2/9 (5.10) |
| 22 | GFDFDDYAMD | GISWNSGSIGYADSVK | MGRGGGYFDY | ND / 3.82 / ND | 2/9 (3.79) |
| 23 | GFTFDDYAMH | GISWNSTSIGYADMVK | VGRGGGYFDY | 5.04 / 4.25 / ND | 4/9 (4.54) |
| 24 | GFTFKDYAMH | GISWNSGSIGYADSVK | VQRGGGYWDY | 1.80 / 1.65 / 1.11 | 2/9 (3.15) |
| 25 | GFTFDDYAMH | GISWASGSIGYVDSVK | VGKGGGYFDY | 5.33 / ND / ND | 1/9 (4.13) |
| 26 | GFTFDDLAMH | GISWNSGSIGYADSVK | VGEGGGYFMY | ND / ND / ND | 1/9 (2.40) |
| 27 | GFTFDDYAMR | GISENSGSIGYADSVK | VGRGGGTFDY | ND / ND / ND | 4/9 (3.35) |
| 28 | GFTFFDYAMH | GISWNSGSIGYQDSVK | VGRGGGYFYY | 4.91 / ND / ND | 0/9 |
| 29 | GFTFDDYIMN | GISENSGSIGYADSVK | VGRGGGYFDY | ND / 4.58 / ND | 2/9 (3.54) |
| 30 | GFTFDDYAMH | GISLNFGSIGYADSVK | VGRGGGYFDH | 3.30 / 5.19 / 4.82 | 3/9 (4.09) |
| 31 | GFTFDDYAMH | GISPNSGSIGYAPSVK | VARGGGYFDY | ND / ND / ND | 0/9 |
| 32 | GFTFDDKAMH | GISWNSGSIGYADSVK | VGRGFGYFDY | ND / 4.11 / ND | 3/9 (4.00) |
| 33 | GYTFDDYAMH | GISWNSGSIGYADSVE | VGRGGWYFDY | ND / ND / ND | 3/9 (4.40) |
| 34 | GFTFDDYAMH | GISWNSGSMGLADSVK | VGFGGGYFDY | 4.19 / 3.31 / 4.22 | 2/9 (4.66) |
| 35 | GFTFDDYAMS | GIHWNSGSIGYADIVK | VGRGGGYFDY | ND / ND / ND | 0/9 |

Top 2 of the variants detected in all replicates, tightest first:

| CDR-H1 | CDR-H2 | CDR-H3 | replicates, log10 nM | signal with controls |
|---|---|---|---|---|
| GFTFKDYAMH | GISWNSGSIGYADSVK | VQRGGGYWDY | 1.80 / 1.65 / 1.11 | 2/9 (3.15) |
| GFTFDDYAMH | GISWNSGSKGYADAVK | VGEGGGYFDY | 1.88 / 1.79 / 1.41 | 2/9 (5.10) |

From the AlphaSeq antibody data of Engelhart et al. 2022 (doi:10.1038/s41597-022-01779-4), copy in the FLAb collection.